pEC50, pIC50: −log10 of the molar value.

Amino acid sequences for entries named in this document (tags omitted).
UniProt P02699, whole entry: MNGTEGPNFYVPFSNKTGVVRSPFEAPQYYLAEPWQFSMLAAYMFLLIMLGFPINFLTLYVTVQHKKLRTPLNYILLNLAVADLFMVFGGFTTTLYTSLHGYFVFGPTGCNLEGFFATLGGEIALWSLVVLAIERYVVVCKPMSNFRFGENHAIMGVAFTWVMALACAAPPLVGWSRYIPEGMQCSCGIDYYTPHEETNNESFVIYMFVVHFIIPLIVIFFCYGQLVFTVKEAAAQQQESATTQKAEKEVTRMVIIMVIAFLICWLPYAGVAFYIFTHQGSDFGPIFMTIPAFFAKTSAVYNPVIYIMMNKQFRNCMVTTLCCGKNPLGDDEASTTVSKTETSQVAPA

Assay [1] concerns the target T1, Rhodopsin (Bos taurus, UniProt P02699). Put plainly: Inhibition of bovine retinal rod outer-segment photoactivated rhodopsin-transducer interaction by transducer release assay.
Assay [2] deals with T1, Rhodopsin. The assay can be described thus: Binding affinity to photoactivated rhodopsin in bovine retinal rod outer-segment membranes assessed as induction of extra receptor MII state stabilization by UV/visible difference spectroscopy.

In assay [1], `C[C@]12CC[C@H]3[C@@H](CCC4=CC(=O)CC[C@@]43C)[C@@H]1CC[C@@H]2C(=O)COS(=O)(=O)c1ccc(Br)cc1` gave a pIC50 of 4.82. Also, the pEC50 in assay [2] was 4.35.
